# US20080182834A1, “Multi-Nuclear Metal Complexes Partially Encapsulated by Cucurbit[7-12]Urils” (NEWSOUTH INNOVATIONS PTY LIMITED, priority 2004, published 2008)
# Key:
# [1] = tested on: 2008 ovarian carcinoma cell line; assay: In vivo activity against subcutaneous 2008 ovarian carcinoma tumours in nude mice; details: 2008 ovarian carcinoma s.c. in female balb/c nude mice; drug equivalence 1 (0.10 mg/kg free complex, 0.27 mg/kg adduct); doses on days 0, 4 and 8
# Description: The cytotoxic activity of the association adduct of BBR3571 and unsubstituted cucurbit[7]uril at a drug equivalence of 1 (equimolar amount) was compared to the free metal complex. The experiment was limited to the MTD of the free metal complex. Female balb/c nude mice were inoculated subcutaneously on the flank with cells from the 2008 ovarian carcinoma cell line. Once the tumours had reached a volume of approximately 100 mm^3 the mice were randomized into groups and administered either a saline solution of BBR3571 at MTD or a saline solution of the association adduct of unsubstituted cucurbit[7]uril and BBR3571 in an equimolar amount (0.27 mg/kg of the association adduct). The controls were administered either as saline or a saline solution of unsubstituted cucurbit[7]uril. Doses were administered on days 0, 4 and 8.
# female balb/c nude mice = assay: Maximum tolerated dose (MTD) in vivo; details: intravenously in saline solution
# Protocol: Platinum complex BBR3571 and the association adduct of BBR3571 and unsubstituted cucurbit[7]uril were tested in vivo in female balb/c nude mice.
substance,measurement,setting,value
{trans-diamminechloro(μ-spermidine)platinum(II)}chloride [BBR3571],GDI (Growth Delay Index),[1],1.6
same,TGI (Tumour Growth Index),[1],48.5%
same,MTD,female balb/c nude mice,0.1 mg/kg
